Measurements from patent US7527971B2, “Adult stem cell lines” (Vitro Diagnostics, Inc., priority 2004, dated 2009).

Tested on: VIT4-G9 cell line

Q: For CC1=C2C[C@H]3[C@@H](CC=C4C[C@@H](O)CC[C@@]43C)[C@@H]2CC[C@]12O[C@@H]1C[C@H](C)CN[C@H]1[C@H]2C [cyclopamine, Cyclopamine], which VIT4-G9 growth is on record?
A: The VIT4-G9 growth was “blocked”.
